Literature values as cited in paper PMC10026690 (Journal of medicinal chemistry, 2019).

Tested on: enteroids
Conditions: doses up to 20 μM; ref 10 (dose by personal communication); cited from earlier work

SMILES: C=C(c1ccccc1)[C@@]12CC[C@@H](O)[C@@H]1CC(CCCCCC)=C2c1ccccc1 [RJW100]
- activity in enteroids: inactive
